Patent US8633232B2, “Compounds, compositions and methods of using same for modulating uric acid levels” (Ardea Biosciences, Inc., priority 2008, dated 2014)

Protein sequences, listed by entry. Tags and fused reporters are not part of them. Lines headed by an entry give the natural chain unless they say otherwise; changes in a name come on top.
UniProt Q96S37: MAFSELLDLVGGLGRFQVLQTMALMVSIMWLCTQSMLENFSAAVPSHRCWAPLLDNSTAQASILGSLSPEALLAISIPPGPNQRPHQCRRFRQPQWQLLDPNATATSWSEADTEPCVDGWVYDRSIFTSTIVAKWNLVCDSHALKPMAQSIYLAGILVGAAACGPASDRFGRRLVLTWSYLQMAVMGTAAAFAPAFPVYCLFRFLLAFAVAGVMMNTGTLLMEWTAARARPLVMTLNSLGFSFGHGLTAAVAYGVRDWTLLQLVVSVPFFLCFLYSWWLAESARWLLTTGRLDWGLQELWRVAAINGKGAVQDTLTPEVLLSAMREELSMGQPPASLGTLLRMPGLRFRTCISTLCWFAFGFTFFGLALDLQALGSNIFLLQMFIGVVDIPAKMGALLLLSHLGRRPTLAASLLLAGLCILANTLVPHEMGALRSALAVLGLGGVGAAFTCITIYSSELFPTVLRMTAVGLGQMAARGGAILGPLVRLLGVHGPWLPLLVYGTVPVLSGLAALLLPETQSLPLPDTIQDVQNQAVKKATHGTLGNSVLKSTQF

Molecular target: T1, hURAT1 Transporter (Homo sapiens, UniProt Q96S37)
T1 construct: Full-length human URAT1 gene (SLC22A12) was subcloned from plasmid pCMV6-XL5
Assay: Uric Acid Uptake Assay
Format: cell-based
Conditions: HEK293/urat1 cells; C14 Uric Acid 40 μM; 10 minutes at room temperature
Source text: Creation of Stable Cell Lines Expressing hURAT1 Transporter: Full-length human URAT1 gene (SLC22A12) was subcloned from plasmid pCMV6-XL5 (Origene) into eukaryotic expression plasmid pCMV6/Neo (Origene) using Not I restriction sites. Gene sequencing confirmed the sequence of hURAT1 as outlined in Genbank (Accession #NM_144585.2). HEK293 human embryonic kidney cells (ATCC#CRL-1573) were propagated in EMEM tissue culture medium as described by ATCC in an atmosphere of 5% CO2 and 95% air. Transfections of HEK293 cells with the pCMV6/Neo/URAT1 construct were performed using L2000 transfection reagent (Invitrogen) as described by the manufacturer. After 24 h the transfected cells were split into 10 cm tissue culture plates and grown for 1 day after which the medium was replaced with fresh growth medium containing G418 (Gibco) at 0.5 mg/ml final concentration. Drug-resistant colonies were selected after approximately 8 days and then tested for ^14C-uric acid transport activity. The HEK293/urat1 cells are plated on Poly-D-Lysine Coated 96-well Plates at a density of 75,000 cells per well.
Cells were grown overnight (20-26 hours) at 37° C. in an incubator. Plates were allowed to come to room temperature and media was washed out with one wash of […] of Wash Buffer (125 mM Na Gluconate, 10 mM Hepes ph 7.3). […] Plates are then read on the TopCount Plate Reader and an EC50 value generated. […]

O=C(O)CSc1nnc(Br)n1-c1ccc(C2CC2)c2ccccc12 [Example 8, 2-(5-bromo-4-(4-cyclopropylnaphthalen-1-yl)-4H-1,2,4-triazol-3-ylthio)acetic acid] showed an EC50 of 1 to 30 µM.
